Target: T1, human delta opioid receptor (Homo sapiens, UniProt P41143)
T1 construct: expressed in transfected cells; host or cells: CHO cells (membrane homogenates)
Assay: [35S]GTP-γ-S binding stimulation, intrinsic activity at delta receptor
Format: biochemical
Settings: compared with DPDPE
Experimental: Determination of intrinsic activity. Test compounds 2.8 and 2.11 were assayed for their ability to stimulate [35S]GTP-γ-S binding in CHO cell membrane homogenates expressing either the human mu or human delta opioid receptor. The compounds were assayed in triplicate at eight different concentrations. […] The membranes were incubated with one of eight concentrations of positive control or test compound, 0.1 nM [35S]GTP-γ-S and 10 μM GDP in a 50 mM HEPES buffer (pH 7.4) at room temperature for one hour, after which bound radioligand was separated from free via rapid vacuum filtration over GF-B filters using a Brandel Scientific (Gaithersburg, MD) 96-well harvester. Bound radioactivity was determined using a TopCount 12-detector instrument (Packard Instruments) using standard scintillation counting techniques. The data were normalized to samples containing vehicle (basal binding), and a three-parameter logistic curve fit to the data using Prism (version 3.0, GraphPad Software, Inc., San Diego, Calif.). The EC50 and upper asymptote (Emax) were calculated for each compound and the data reported as mean ±SEM.

Chains of the proteins cited; added tags and fusions are not shown.
UniProt P41143, whole entry: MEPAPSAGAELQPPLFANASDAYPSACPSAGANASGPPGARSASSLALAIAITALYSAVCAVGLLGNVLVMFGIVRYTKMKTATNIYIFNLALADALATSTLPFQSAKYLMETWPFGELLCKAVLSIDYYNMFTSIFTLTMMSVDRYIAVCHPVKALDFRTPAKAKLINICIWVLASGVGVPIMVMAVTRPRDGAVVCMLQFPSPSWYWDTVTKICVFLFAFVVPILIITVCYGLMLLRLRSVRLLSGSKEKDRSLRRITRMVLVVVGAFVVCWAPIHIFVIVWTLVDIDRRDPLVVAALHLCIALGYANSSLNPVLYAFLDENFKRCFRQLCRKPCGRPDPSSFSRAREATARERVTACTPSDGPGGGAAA

## D-Pen2,D-Pen5]-enkephalin [DPDPE, reference compound]
  intrinsic activity at the delta opioid receptor (in words): full agonist
